Results: patent publication US9512126B2, “Substituted imidazopyridazines” (Bayer Intellectual Property GmbH, priority 2012, dated 2016)

By UniProt entry, the sequences of proteins in these tests, tags left out. Where a name states a change or a piece, a line headed by the entry shows the natural chain unless it says otherwise.
UniProt P33981: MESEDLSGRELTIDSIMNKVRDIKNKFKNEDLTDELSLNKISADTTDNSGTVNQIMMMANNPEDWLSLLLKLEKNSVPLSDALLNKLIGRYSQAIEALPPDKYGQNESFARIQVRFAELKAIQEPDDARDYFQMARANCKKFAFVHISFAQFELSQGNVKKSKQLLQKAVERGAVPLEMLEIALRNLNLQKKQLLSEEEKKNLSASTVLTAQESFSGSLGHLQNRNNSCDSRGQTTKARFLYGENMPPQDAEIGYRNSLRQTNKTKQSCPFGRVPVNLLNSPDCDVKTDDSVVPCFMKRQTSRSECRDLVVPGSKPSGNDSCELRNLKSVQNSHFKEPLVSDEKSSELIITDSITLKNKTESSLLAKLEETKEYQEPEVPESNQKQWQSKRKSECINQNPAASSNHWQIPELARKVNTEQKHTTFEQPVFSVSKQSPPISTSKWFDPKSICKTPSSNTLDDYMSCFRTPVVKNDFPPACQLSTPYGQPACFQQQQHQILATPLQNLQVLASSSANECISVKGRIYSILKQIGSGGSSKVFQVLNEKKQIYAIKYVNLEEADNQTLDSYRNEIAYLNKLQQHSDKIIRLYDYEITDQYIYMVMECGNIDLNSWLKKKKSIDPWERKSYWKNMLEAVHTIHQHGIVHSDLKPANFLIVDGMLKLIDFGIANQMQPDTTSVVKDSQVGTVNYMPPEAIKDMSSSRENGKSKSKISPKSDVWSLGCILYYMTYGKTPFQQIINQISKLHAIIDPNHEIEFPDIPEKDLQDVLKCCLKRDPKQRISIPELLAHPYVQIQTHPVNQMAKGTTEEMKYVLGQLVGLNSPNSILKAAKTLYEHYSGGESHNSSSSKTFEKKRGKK

Molecular target: human kinase Mps-1 (Homo sapiens (Human), UniProt P33981)
Test: Mps-1 kinase assay (TR-FRET)
Format: biochemical
Conditions: N-terminally GST-tagged human full length recombinant Mps-1, 10 μM ATP
Experimental: The human kinase Mps-1 phosphorylates a biotinylated substrate peptide. Detection of the phosphorylated product is achieved by time-resolved fluorescence resonance energy transfer (TR-FRET) from Europium-labelled anti-phospho-Serine/Threonine antibody as donor to streptavidin labelled with cross-linked allophycocyanin (SA-XLent) as acceptor. Compounds are tested for their inhibition of the kinase activity.
N-terminally GST-tagged human full length recombinant Mps-1 kinase (purchased from Invitrogen, Karslruhe, Germany, cat. no PV4071) was used. As substrate for the kinase reaction a biotinylated peptide of the amino-acid sequence […] (C-terminus in amide form, purchased from Biosynthan GmbH, Berlin) was used.
The concentration of Mps-1 in the assay was adjusted to the activity of the enzyme lot and was chosen appropriate to have the assay in the linear range, typical enzyme concentrations were in the range of about 1 nM (final conc. in the 5 μl assay volume).
The resulting mixture was incubated 1 h at 22° C. to allow the binding of the phosphorylated peptide to the anti-phospho(Ser/Thr)-Europium-antibody. Subsequently the amount of phosphorylated substrate was evaluated by measurement of the resonance energy transfer from the Europium-labelled anti-phospho(Ser/Thr) antibody to the Streptavidin-XLent.

SMILES	IC50
COc1ccc(C(F)(F)c2cc(NCCC(F)(F)F)c3ncc(-c4ccc(C(=O)NC5CC5)c(C)c4)n3n2)cc1 [Example 16, N-Cyclopropyl-4-{6-[difluoro(4-methoxyphenyl)methyl]-8-[(3,3,3-trifluoropropyl)amino]imidazo[1,2-b]pyridazin-3-yl}-2-methylbenzamide]	0.6 nM
Cc1cc(-c2cnc3c(NCCC(F)(F)F)cc(C4(c5cccc(F)c5F)CC4)nn23)ccc1C(=O)NC1CC1 [Example 17, N-Cyclopropyl-4-{6-[1-(2,3-difluorophenyl)cyclopropyl]-8-[(3,3,3-trifluoropropyl)amino]imidazo[1,2-b]pyridazin-3-yl}-2-methylbenzamide]	0.7 nM
